This is an account of results in patent US20190369122A1, “METABOLIC DISORDERS” (priority 2016, published 2019).

The test system of this assay is primary hepatocytes. In words: Insulin signaling in primary hepatocytes (immunoblot). Format: cell-based, mouse. The following applies: inhibitor 20 μM, ImP 100 μM, 24 h. The procedure: Snap-frozen liver and harvested cells were lysed in buffer containing 50 mM Tris-HCl (pH 7.4), 150 mM NaCl, 1 mM EDTA, 1 mM Na3VO4, 20 mM NaF, 10 mM glycerophosphate, 1 mM PMSF, 10% glycerol, 1% Triton X-100 and protease inhibitor cocktail. For immunoprecipitation, the cell lysates were obtained in 0.3% CHAPS-containing lysis buffer, sonicated and centrifuged at 20,000 g for 15 min at 4° C., and the supernatant was incubated with 20 μl of anti-FLAG beads (Sigma) at 4° C. for 4 h under gentle agitation.
Primary hepatocytes were isolated from C57BL/6J mice by digesting liver with perfusion of collagenase type IV as described previously. After perfusion, 16×10^5 cells were plated on collagen-coated 60 mm dishes in Dulbecco's modified Eagle's medium (DMEM)/F12 supplemented with fetal bovine serum (FBS), penicillin/streptomycin and 100 nM dexamethasone. After 4 h, the medium was changed to DMEM/F12 containing penicillin/streptomycin.
For insulin stimulation, primary hepatocytes were cultured in DMEM/F12 with or without 100 μM imidazole propionate for 14 to 24 h and treated with 5 nM insulin for the indicated times. For amino acid deprivation, primary hepatocytes were cultured in DMEM/F12 for 24 h, rinsed once with Earle's Balanced Salt Solution (EBSS) and then incubated in EBSS for 1 h before incubation with 100 μM imidazole propionate for the indicated times.
On the technique in general: A western blot detects proteins with antibodies after separation by electrophoresis.

Structures are written as SMILES.

Consider `O=c1[nH]nc(Sc2ncc([N+](=O)[O-])s2)n1-c1ccc2c(c1)OCCO2` [B178D3, reference compound], for which the “restoration of imidazole propionate-induced IRS1 reduction” value is listed as “did not restore”.
